Data from patent US20240254179A1, “Targeting Nuclear Speckles and DNA Speckle Association” (THE TRUSTEES OF THE UNIVERSITY OF PENNSYLVANIA, priority 2023, published 2024).

Protein sequences, listed by entry. Tags and fused reporters are not part of them. Lines headed by an entry give the natural chain unless they say otherwise; changes in a name come on top.
UniProt Q99814: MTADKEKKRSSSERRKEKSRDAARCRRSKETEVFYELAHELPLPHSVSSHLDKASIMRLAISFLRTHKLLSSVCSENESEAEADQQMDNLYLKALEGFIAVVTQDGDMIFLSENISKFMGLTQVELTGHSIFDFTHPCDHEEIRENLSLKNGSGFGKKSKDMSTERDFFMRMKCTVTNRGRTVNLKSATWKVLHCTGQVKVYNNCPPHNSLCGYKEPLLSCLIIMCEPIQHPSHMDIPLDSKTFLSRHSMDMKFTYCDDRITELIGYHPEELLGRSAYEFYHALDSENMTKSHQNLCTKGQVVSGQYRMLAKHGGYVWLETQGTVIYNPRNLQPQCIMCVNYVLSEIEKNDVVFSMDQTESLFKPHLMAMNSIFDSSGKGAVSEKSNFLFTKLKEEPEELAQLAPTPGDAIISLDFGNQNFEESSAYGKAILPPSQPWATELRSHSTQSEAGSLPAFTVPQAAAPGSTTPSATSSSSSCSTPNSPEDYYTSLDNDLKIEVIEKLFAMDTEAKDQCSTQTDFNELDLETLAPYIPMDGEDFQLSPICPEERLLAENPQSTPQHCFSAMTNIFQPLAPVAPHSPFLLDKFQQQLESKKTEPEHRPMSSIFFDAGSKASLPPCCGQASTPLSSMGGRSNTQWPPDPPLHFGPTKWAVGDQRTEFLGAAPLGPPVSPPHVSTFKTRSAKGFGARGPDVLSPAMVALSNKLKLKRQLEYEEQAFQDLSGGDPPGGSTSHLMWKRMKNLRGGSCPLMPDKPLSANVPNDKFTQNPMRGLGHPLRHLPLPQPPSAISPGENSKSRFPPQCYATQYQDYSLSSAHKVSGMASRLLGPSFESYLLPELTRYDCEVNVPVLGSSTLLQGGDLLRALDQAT

Columns and labels:
[1] = target: T1, HIF2A (Homo sapiens, UniProt Q99814); details: 786O cells, DMSO control or PT2399 treatment
[2] = target: T1, HIF2A; details: 786O cells, PT2399 versus DMSO
[3] = target: T1, HIF2A; details: 786O cells, PT2399 versus DMSO vehicle control
[4] = target: T1, HIF2A; details: A498 cells, PT2399
[5] = target: T1, HIF2A

HIF2A-specific genomic binding (ChIP-seq) [1]: a loss of HIF2A-specific binding | L-shaped relationship between distance to speckle and nascent RNA within transcription sites [2]: abolishes this L-shaped distribution | number of HIF2A-dependent genes that decreased their SON TSA-seq speckle signal [3]: 175
Compound: N#Cc1cc(F)cc(Oc2ccc(S(=O)(=O)C(F)F)c3c2CC(F)(F)[C@H]3O)c1 [PT2399]
distance of HIF2A-responsive genes CCND1 and DDIT4 to speckles [2]: CCND1 and DDIT4 become more distal to speckles | speckle association of HIF2A-responsive genes [4]: does not alter speckle association of HIF2A-responsive genes | number of decreased genes upon PT2399 treatment (RNA-seq) ([5]; 786O cells and A498 cells compared): comparable number of decreased genes in each cell type | gene expression change upon HIF2A inhibition (RNA-seq) ([5]; 786O cells, DMSO control versus PT2399 time course): the majority of genes are decreasing with HIF2A inhibition
